Laboratory results taken from patent US5888971A, “Macrocyclic peptides useful in the treatment of thrombin related disorders” (Ortho Pharmaceutical Corporation, Inc., priority 1996, dated 1999).
Like-named read-outs stand apart in the source and are kept apart here.

Chains of the proteins cited; added tags and fusions are not shown. Residues count along the entry.
UniProt P00760, 24-246 limits assumed: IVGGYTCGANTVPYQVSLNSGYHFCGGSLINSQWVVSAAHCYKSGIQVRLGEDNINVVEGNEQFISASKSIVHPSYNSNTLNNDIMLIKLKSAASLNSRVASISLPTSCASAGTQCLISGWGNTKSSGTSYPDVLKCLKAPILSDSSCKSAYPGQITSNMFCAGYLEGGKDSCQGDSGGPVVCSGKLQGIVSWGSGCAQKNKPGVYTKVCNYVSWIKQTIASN

Key:
human alpha-thrombin [1] = biological target: T1, human alpha-thrombin (Homo sapiens, UniProt P00734); experiment: Thrombin-catalyzed hydrolysis of chromogenic substrate, Michaelis-Menten Ki; type: biochemical; details: read-out: Thr Ki, 1 nM thrombin, 5-100 μM Spectozyme TH, 37° C., pH 7.4, Michaelis-Menten kinetics
Bovine type 1 trypsin = Bovine type 1 trypsin (Bos taurus, UniProt P00760); experiment: Trypsin-catalyzed hydrolysis of chromogenic substrate, Ki; type: biochemical; details: read-out: Trp Ki, 3.2 U/ml trypsin, 0.1-0.3 mM Spectrozyme TRY
human alpha-thrombin [2] = biological target: T1, human alpha-thrombin; experiment: Slow, tight-binding kinetics with thrombin (Ki-slow); details: read-out: Thr Ki -slow; 0.1 nM thrombin, 50 μM Spectozyme TH, 25° C., 4 h; tested form: TFA hydrate
[3] = tested form: di-TFA sesquihydrate

Work on N=C(N)NCCC[C@@H]1NC(=O)[C@@H]2CCCN2C(=O)CCCCCCCNC(=O)[C@@H](Cc2ccccc2)NC(=O)C1=O yielded a Ki (human alpha-thrombin [1]; tested form: TFA hydrate) of 1.61 µM and a Ki (Bovine type 1 trypsin; tested form: TFA hydrate) of 0.011 µM.

With CO[C@H]1C[C@H]2C(=O)N[C@@H](CCCNC(=N)N)C(=O)C(=O)NCCCCCCCC(=O)N[C@H](Cc3ccccc3)C(=O)N2C1 the Ki (human alpha-thrombin [1]; tested form: TFA hydrate) was 0.16 µM.

N=C(N)NCCC[C@@H]1NC(=O)[C@@H]2CCCN2C(=O)[C@@H](c2ccccc2)NC(=O)CCCCCCCNC(=O)C1=O showed a Ki (human alpha-thrombin [1]; tested form: TFA hydrate) of 0.2 µM and a Ki (Bovine type 1 trypsin; tested form: TFA hydrate) of 0.039 µM.

For N=C(N)NCCC[C@@H]1NC(=O)[C@@H]2CCCN2C(=O)[C@@H](CCc2ccccc2)NC(=O)CCCCCCCNC(=O)C1=O, the Ki (human alpha-thrombin [1]; tested form: TFA hydrate) was 0.014 µM and the Ki (Bovine type 1 trypsin; tested form: TFA hydrate) was 0.045 µM.

Compound N=C(N)NCCC[C@@H]1NC(=O)[C@@H]2CCCN2C(=O)[C@@H](Cc2ccccc2)NC(=O)CCCCNCCNC(=O)C1=O has a Ki (human alpha-thrombin [1]; tested form: TFA hydrate) of 0.018 µM and a Ki (Bovine type 1 trypsin; tested form: TFA hydrate) of 0.0029 µM.

In the case of N=C(N)NCCC[C@@H]1NC(=O)[C@@H]2CCCN2C(=O)[C@@H](Cc2ccccc2)NC(=O)CCCCCCCNC(=O)C1=O, the Ki (human alpha-thrombin [1]; tested form: TFA hydrate) is reported as 0.021 µM and the Ki (Bovine type 1 trypsin; tested form: TFA hydrate) is reported as 0.015 µM.

Work on N=C(N)NCCC[C@@H]1NC(=O)[C@@H]2CCCN2C(=O)[C@@H](Cc2ccccc2)NC(=O)CCCCCNC(=O)[C@@H](Cc2ccccc2)NC(=O)C1=O yielded a Ki (Bovine type 1 trypsin; tested form: TFA) of 0.004 µM.

For N=C(N)NCCC[C@@H]1NC(=O)[C@@H]2CCCN2C(=O)[C@@H](Cc2ccccc2)NCCCCCCCCNC(=O)C1=O, the Ki (human alpha-thrombin [1]; tested form: TFA hydrate) was 0.0023 µM and the Ki (Bovine type 1 trypsin; tested form: TFA hydrate) was 0.0015 µM.

For N=C(N)NCCC[C@@H]1NC(=O)[C@@H]2CCCN2C(=O)[C@@H](Cc2ccccc2)NC(=O)CCCCCCNC(=O)C1=O, the Ki (human alpha-thrombin [2]) was 0.492 µM.

With N=C(N)NCCC[C@@H]1NC(=O)[C@@H]2CCCN2C(=O)[C@@H](Cc2ccccc2)NC(=O)CCCCCNC(=O)C1=O the Ki (human alpha-thrombin [1]; [3]) was 0.35 µM and the Ki (Bovine type 1 trypsin; [3]) was 0.45 µM.

Work on N=C(N)NCCC[C@@H]1NC(=O)[C@@H]2CCCN2C(=O)CCCCCNC(=O)[C@H](CCC(=O)O)NC(=O)C1=O yielded a Ki (human alpha-thrombin [1]; tested form: TFA hydrate) of 85.9 µM and a Ki (Bovine type 1 trypsin; tested form: TFA hydrate) of 0.62 µM.

For N=C(N)NCCC[C@@H]1NC(=O)[C@@H]2CCCN2C(=O)[C@@H](C(c2ccccc2)c2ccccc2)NC(=O)CCCCCNC(=O)[C@@H](Cc2ccccc2)NC(=O)C1=O, the Ki (human alpha-thrombin [1]; tested form: TFA hydrate) was 0.019 µM, the Ki (Bovine type 1 trypsin; tested form: TFA hydrate) was 0.0053 µM and the Ki (human alpha-thrombin [2]) was 0.00136 µM.

In the case of N=C(N)NCCC[C@@H]1NC(=O)[C@@H]2CCCN2C(=O)[C@@H](Cc2ccccc2)NC(=O)CCCCCNC(=O)[C@H](Cc2ccccc2)NC(=O)C1=O, the Ki (Bovine type 1 trypsin; tested form: TFA hydrate) is reported as 0.017 µM.

In the case of N=C(N)NCCC[C@@H]1NC(=O)[C@@H]2CCCN2C(=O)CCCCCNC(=O)[C@@H](Cc2ccccc2)NC(=O)C1=O, the Ki (human alpha-thrombin [1]; tested form: TFA hydrate) is reported as 0.15 µM and the Ki (Bovine type 1 trypsin; tested form: TFA hydrate) is reported as 0.026 µM.
